Molecular target: T1, prM protein of DENV4 (Dengue virus 4, strain H241, UniProt Q58HT7)
T1 construct: also called pre-membrane protein; source: DENV4-infected Vero cells, in lysate
Experiment: Western blot
Conditions: one partner purified

B1: D29 Fab-IgG (antibody, V domains shown)
VH: QMQLVQSGGGVVQPGRSLRLSCAASGFTFSSYAMHWVRQAPGKGLEWVAGTSYDGSNKYYADSVKGRFTISGDNSKNTVYLQMNSLRAEDTAVYYCARAHSSGWYDAFDIWGQGTTVTVSS
VL: SYVLTQPPSVSVSPGQAASITCSGDKLGDKYAWWYQQKPGQSPVMVIHQDDKRPSGIPERFSGSNSGNTATLTITGTQAMDEADYYCQAWDRTTVVFGGGTKLTVL
notes: source: HEK 293 T cells (Fab from a non-immunized human Fab phage library, converted into human IgG format)
B1: binds.

— PMC3317930, “A Human PrM Antibody That Recognizes a Novel Cryptic Epitope on Dengue E Glycoprotein” (PLoS ONE, 2012)
